From US9868705B2, “Tetra-aryl cyclobutane inhibitors of androgen receptor action for the treatment of hormone refractory cancer” (The Board of Trustees of the University of Illinois, priority 2013, dated 2018)

Amino acid sequences for entries named in this document (tags omitted).
UniProt P10275, whole entry T878A: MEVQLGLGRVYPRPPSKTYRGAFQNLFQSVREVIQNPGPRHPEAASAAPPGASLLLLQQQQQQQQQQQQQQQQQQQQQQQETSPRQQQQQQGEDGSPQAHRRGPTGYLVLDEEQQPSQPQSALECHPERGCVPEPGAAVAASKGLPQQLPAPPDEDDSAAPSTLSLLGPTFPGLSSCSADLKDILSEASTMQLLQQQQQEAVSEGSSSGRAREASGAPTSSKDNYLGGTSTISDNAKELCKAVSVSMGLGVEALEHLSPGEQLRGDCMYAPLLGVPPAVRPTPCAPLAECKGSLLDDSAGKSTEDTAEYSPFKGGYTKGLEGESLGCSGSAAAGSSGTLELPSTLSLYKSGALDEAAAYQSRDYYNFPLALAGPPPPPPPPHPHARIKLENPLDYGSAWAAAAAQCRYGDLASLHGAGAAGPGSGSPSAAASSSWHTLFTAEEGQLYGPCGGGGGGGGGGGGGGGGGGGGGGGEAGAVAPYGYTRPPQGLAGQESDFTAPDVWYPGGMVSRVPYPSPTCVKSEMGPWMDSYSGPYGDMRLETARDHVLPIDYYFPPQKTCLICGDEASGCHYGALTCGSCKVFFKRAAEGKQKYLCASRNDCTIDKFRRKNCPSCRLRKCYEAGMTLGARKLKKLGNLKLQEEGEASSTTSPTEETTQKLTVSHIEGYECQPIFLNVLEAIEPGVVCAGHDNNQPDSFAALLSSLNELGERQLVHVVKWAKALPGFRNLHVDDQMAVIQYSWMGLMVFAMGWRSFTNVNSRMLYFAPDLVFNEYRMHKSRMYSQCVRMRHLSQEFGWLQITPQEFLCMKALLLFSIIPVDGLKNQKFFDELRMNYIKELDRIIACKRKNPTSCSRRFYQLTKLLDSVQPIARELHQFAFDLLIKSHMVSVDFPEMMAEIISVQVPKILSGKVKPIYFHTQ

Biological target: T877A (LNCaP) AR (Homo sapiens, UniProt P10275, T878A)
Test: MMTV-luciferase transcription assay in CV-1 cells, T877A AR
Assay type: cell-based
Settings: MMTV transcription assay in CV-1 cells, compared with 1

## COc1nc(C)cc(C2C(c3ccccc3)C(c3cc(C)nc(OC)n3)C2c2ccccc2)n1 (single isomer, unassigned)
  AR antagonism, potency in words (structure-activity discussion): comparable potency to 1
